Source: PubChem BioAssay AID501 (PCMD, 2006)
This is a selection; strong and weak results do not stand in their true shares. Calls of active or inactive are those of the source. Cut-off read from the data, not from the text of the source: active = inhibition above about 32% (passing the limit was not always enough); inconclusive = no clear call, values can overlap the other calls.

Chains of the proteins cited; added tags and fusions are not shown.
UniProt P25774, whole entry, looked up: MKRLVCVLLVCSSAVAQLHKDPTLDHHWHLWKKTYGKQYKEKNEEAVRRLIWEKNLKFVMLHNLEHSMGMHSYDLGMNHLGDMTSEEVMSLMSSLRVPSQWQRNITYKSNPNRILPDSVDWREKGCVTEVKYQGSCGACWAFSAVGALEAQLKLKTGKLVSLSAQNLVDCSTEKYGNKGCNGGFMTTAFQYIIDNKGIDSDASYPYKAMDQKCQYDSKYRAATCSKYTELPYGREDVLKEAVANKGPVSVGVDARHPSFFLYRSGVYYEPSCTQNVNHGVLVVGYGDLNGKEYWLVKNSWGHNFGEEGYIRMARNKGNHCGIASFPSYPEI

The molecules below were run against Cathepsin S (Homo sapiens) (UniProt P25774) (assay: blockers of CTSS protease activity – biochemical, compound mixtures (AID 501;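 note: 0% = enzyme without compound and 100% = blank without enzyme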)). Conditions: recombinant cathepsin S, AMC dipeptide fluorescence, pooled mixtures; stronger effect = higher value;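 tested at 5 µM per compound within 10-compound mixtures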.

Q: With `O=C(OC1CN2CCC1CC2)C12CC3CC(CC(C3)C1)C2` (stereo not given) as the molecule, how does the inhibition read?
A: inactive: -6.17%

Q: For `O=C(COc1ccccc1)OC1CN2CCC1CC2` (stereo not given), which inhibition is on record?
A: inactive: -0.24%

Q: How did the inhibition turn out when `COP1(=S)c2c(C)nn(CCC#N)c2N=C(c2ccc(F)cc2)N1C` (stereo not given) was run?
A: inactive: 0.155%

Q: `Cc1nn(-c2ccccc2)c2c1P(=O)(N1CCOCC1)N(C)C(c1ccccc1)=N2` (stereo not given) was tested. Which inhibition did it give?
A: inactive: 14.1%

Q: For `O=P1(Nc2ccc(Br)cn2)COc2ccccc2OC1`, which inhibition is on record?
A: inactive: 8.55%

Q: With `Cc1ccc(OCC(=O)OC2CN3CCC2CC3)cc1` (stereo not given) as the molecule, how does the inhibition read?
A: inactive: 15.7%

Q: With `O=P1(Nc2ncccn2)COc2ccccc2OC1` as the molecule, how does the inhibition read?
A: inactive: -2.72%

Q: How did the inhibition turn out when `Clc1n[nH]nc1-c1nn[nH][15n]1` was run?
A: inactive: 0.87%

Q: How did the inhibition turn out when `O=P1(Nc2ccccn2)COc2ccccc2OC1` was run?
A: inactive: -2.01%

Q: `Cc1cccc(OCC(=O)OC2CN3CCC2CC3)c1` (stereo not given) was tested. Which inhibition did it give?
A: inactive: 20.3%

Q: `CCOP1(=S)c2c(C)nn(CCC#N)c2N=C(c2ccccc2F)N1C` (stereo not given) was tested. Which inhibition did it give?
A: inactive: 21.7%

Q: With `O=P(Nc1nccs1)(c1ccccc1)c1nc2ccccc2s1` (stereo not given) as the molecule, how does the inhibition read?
A: inactive: 13.6%

Q: For `CCOP1(=S)c2c(C)nn(CCC#N)c2N=C(c2ccc(F)cc2)N1C` (stereo not given), which inhibition is on record?
A: inactive: 2.27%

Q: With `COC(=O)c1cc2c(s1)N=C(c1ccccc1)N(C)P2(=O)N1CCOCC1` (stereo not given) as the molecule, how does the inhibition read?
A: inactive: 1.71%

Q: `O=P1(Nc2nc3ccc(Cl)cc3s2)COc2ccccc2O1` (stereo not given) was tested. Which inhibition did it give?
A: inactive: 2.33%

Q: Which inhibition does the source give for `c1nnnn1CCn1cnnn1` here?
A: inactive: 8.1%

Q: How did the inhibition turn out when `O=P(Nc1nccs1)(c1ccccc1)c1ccccc1` was run?
A: inactive: -3.7%

Q: Which inhibition does the source give for `O=C(OC1CN2CCC1CC2)c1cccc(Cl)c1` (stereo not given) here?
A: inactive: -7.73%

Q: How did the inhibition turn out when `CCc1nc2c(n1)c1c(non1O)c1c2no[n+]1[O-]` was run?
A: inactive: 15.3%

Q: `Cc1c2non([O-])c-2c(C)[n+](=O)[n+]1[O-]` was tested. Which inhibition did it give?
A: inactive: 5.55%
